Biological target: T1, Alpha-1A adrenergic receptor (Rattus norvegicus, UniProt P43140)
T1 sequence (P43140 whole entry): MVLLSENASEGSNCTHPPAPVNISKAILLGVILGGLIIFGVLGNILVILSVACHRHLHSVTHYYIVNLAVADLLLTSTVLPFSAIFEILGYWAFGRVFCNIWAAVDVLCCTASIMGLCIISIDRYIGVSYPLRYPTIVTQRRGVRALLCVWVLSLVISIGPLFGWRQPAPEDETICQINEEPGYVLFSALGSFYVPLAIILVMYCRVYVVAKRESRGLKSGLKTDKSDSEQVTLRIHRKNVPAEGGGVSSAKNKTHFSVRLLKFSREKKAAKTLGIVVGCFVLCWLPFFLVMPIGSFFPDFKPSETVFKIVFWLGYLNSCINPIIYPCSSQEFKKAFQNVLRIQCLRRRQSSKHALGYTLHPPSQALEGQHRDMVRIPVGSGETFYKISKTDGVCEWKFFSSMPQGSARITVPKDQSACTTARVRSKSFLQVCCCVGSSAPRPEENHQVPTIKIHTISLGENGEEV

- Ki: 110 nM
SMILES: c1ccc2c(CC3=NCCN3)cccc2c1 [Naphazoline]
